Laboratory results as given in paper PMC9448382, “Fluorosulfate-containing pyrazole heterocycles as selective BuChE inhibitors: structure-activity relationship and biological evaluation for the treatment of Alzheimer’s disease” (Journal of Enzyme Inhibition and Medicinal Chemistry, 2022).

By UniProt entry, the sequences of proteins in these tests, tags left out. Residues count along the entry.
UniProt P06276, 29-602: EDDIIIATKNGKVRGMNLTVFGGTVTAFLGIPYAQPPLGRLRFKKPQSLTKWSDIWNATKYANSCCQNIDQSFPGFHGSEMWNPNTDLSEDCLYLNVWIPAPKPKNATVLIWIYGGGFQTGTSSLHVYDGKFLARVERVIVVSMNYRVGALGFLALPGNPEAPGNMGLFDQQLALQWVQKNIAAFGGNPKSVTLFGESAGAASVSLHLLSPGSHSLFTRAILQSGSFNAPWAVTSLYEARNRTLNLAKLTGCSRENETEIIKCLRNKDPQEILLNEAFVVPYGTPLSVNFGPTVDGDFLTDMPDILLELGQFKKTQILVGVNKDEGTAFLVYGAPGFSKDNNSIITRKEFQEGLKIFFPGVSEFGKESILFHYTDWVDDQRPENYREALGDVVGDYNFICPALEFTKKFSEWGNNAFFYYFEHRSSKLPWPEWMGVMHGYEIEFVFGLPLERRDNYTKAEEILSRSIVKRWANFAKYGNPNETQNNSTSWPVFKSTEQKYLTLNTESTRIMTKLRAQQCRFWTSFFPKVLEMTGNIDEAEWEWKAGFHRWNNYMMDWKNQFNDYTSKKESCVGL

Biological target: T1, hBuChE from human serum (Homo sapiens, UniProt P06276)
T1 construct: purchased Sigma B4186; host or cells: human serum (per result head)
Assay: hBuChE inhibition assay
Assay type: biochemical
Details: mean ± SEM

CCN(C)C(=O)Oc1cccc([C@H](C)N(C)C)c1 [Rivastigmine, reference compound]
IC50: 7.77 ± 2.92 µM
